IntAct's records for PubMed 17632056

B1: Myc proto-oncogene protein (Homo sapiens), P01106 (parent)
chain: MDFFRVVENQQPPATMPLNVSFTNRNYDLDYDSVQPYFYCDEEENFYQQQQQSELQPPAPSEDIWKKFELLPTPPLSPSRRSGLCSPSYVAVTPFSLRGDNDGGGGSFSTADQLEMVTELLGGDMVNQSFICDPDDETFIKNIIIQDCMWSGFSAAAKLVSEKLASYQAARKDSGSPNPARGHSVCSTSSLYLQDLSAAASECIDPSVVFPYPLNDSSSPKSCASQDSSAFSPSSDSLLSSTESSPQGSPEPLVLHEETPPTTSSDSEEEQEDEEEIDVVSVEKRQAPGKRSESGSPSAGGHSKPPHSPLVLKRCHVSTHQHNYAAPPSTRKDYPAAKRVKLDSVRVLRQISNNRKCTSPRSSDTEENVKRRTHNVLERQRRNELKRSFFALRDQIPELENNEKAPKVVILKKATAYILSVQAEEQKLISEEDLLRKRREQLKHKLEQLRNSCA

Variants of: B1
Conditions: with cip2a_human CIP2A

effect of a mutation on the interaction | Variant
decreasing interaction | S77D
decreasing interaction | S77A
